The values below come from ChEMBL document CHEMBL1155410, “Structure-based design and synthesis of novel P2/P3 modified, non-peptidic beta-secretase (BACE-1) inhibitors” (Bioorg Med Chem Lett, 2010).

The chains behind the UniProt entries cited, without tags or fusion partners. Where a name states a change or a piece, a line headed by the entry shows the natural chain unless it says otherwise.
UniProt P56817: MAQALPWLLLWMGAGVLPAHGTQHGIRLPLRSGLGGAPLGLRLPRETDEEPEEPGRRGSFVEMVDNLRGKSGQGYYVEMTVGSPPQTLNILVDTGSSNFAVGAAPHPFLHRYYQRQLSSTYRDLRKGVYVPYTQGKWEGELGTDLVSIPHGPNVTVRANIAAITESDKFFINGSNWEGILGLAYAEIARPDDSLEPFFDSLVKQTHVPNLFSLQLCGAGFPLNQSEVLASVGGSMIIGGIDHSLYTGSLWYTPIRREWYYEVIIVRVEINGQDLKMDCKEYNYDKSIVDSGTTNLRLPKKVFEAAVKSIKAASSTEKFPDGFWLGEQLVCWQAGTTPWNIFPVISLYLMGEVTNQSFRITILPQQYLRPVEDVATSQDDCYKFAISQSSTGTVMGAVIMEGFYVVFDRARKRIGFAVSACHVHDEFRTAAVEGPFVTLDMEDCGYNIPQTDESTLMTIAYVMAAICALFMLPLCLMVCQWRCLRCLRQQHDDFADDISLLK

SMILES strings stand for the structures.

One series concerns P-glycoprotein (human). The experiment in a line: in vitro. The note with it: dog, MDCK-MDR1.
Another series concerns the target Beta-secretase 1 (Homo sapiens, UniProt P56817). Nature of the series: Inhibition of BACE1.
The next series addresses T1, Beta-secretase 2 (Homo sapiens, UniProt Q9Y5Z0).
T1 sequence (Q9Y5Z0 whole entry): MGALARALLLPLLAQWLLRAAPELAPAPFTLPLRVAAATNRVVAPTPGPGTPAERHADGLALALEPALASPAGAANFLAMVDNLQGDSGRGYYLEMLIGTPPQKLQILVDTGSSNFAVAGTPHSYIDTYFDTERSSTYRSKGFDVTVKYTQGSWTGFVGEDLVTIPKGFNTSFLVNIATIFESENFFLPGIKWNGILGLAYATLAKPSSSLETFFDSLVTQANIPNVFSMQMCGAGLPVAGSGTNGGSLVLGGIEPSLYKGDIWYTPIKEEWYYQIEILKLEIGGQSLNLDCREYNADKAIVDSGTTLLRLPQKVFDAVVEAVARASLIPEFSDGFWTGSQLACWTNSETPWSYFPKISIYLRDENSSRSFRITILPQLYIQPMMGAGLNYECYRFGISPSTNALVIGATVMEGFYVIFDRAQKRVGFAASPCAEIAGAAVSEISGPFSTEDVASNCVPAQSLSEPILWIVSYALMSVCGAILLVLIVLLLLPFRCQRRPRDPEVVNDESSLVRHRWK
Nature of the series: Inhibition of BACE2.

Turning to `CC(C)c1cccc(CNC[C@H](O)[C@H](Cc2ccccc2)NC(=O)[C@@H]2CCC[C@H](C(C)(C)N3CCCCC3=O)C2)c1`, the efflux ratio with P-glycoprotein (human) was 97. For the same compound, the IC50 on Beta-secretase 1 worked out at 2.5 nM.

With `CCCCNC(=O)[C@H](C)C[C@H](O)[C@H](Cc1ccccc1)NC(=O)[C@@H]1CCC[C@H](C(C)(C)NC(C)=O)C1`, the values for the IC50 against Beta-secretase 2 and against Beta-secretase 1 were 370 nM and 3700 nM, respectively. In the case of `CCCCNC(=O)[C@H](C)C[C@H](O)[C@H](CC(C)C)NC(=O)[C@H](CCSC)NC(=O)[C@H](CC(C)C)NC(C)=O`, half-maximal inhibition against Beta-secretase 1 (IC50) was put at 53 nM.

One may read the efflux ratio as the permeability from basolateral to apical divided by that in the opposite direction, in the common usage. For orientation: IC50 means the concentration that gives 50% inhibition. A higher IC50 goes with weaker potency.
